Test results: US20250084101A1, “COMPOUND FOR INHIBITING AND DEGRADING IRAK4, AND PHARMACEUTICAL COMPOSITION AND PHARMACEUTICAL APPLICATION THEREOF” (XIZANG HAISCO PHARMACEUTICAL CO., LTD., priority 2022, published 2025)
Read-outs that look alike come from different tables or passages of the source.

Sequences of proteins named here, by UniProt entry; tags and fusion partners are left off.
UniProt Q9NWZ3, whole entry: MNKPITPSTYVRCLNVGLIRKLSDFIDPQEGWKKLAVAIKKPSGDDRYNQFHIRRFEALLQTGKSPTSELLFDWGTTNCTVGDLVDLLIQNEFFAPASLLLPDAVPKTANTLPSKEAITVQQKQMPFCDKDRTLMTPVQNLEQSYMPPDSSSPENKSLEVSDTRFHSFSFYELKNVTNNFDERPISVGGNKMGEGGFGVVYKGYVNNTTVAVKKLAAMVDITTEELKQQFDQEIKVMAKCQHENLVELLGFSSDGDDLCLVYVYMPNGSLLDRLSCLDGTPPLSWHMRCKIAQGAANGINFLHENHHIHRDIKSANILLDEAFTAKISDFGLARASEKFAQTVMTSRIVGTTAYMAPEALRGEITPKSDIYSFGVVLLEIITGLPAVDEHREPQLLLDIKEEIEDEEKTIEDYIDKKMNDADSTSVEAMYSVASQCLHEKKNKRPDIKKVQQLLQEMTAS
UniProt Q12809, whole entry: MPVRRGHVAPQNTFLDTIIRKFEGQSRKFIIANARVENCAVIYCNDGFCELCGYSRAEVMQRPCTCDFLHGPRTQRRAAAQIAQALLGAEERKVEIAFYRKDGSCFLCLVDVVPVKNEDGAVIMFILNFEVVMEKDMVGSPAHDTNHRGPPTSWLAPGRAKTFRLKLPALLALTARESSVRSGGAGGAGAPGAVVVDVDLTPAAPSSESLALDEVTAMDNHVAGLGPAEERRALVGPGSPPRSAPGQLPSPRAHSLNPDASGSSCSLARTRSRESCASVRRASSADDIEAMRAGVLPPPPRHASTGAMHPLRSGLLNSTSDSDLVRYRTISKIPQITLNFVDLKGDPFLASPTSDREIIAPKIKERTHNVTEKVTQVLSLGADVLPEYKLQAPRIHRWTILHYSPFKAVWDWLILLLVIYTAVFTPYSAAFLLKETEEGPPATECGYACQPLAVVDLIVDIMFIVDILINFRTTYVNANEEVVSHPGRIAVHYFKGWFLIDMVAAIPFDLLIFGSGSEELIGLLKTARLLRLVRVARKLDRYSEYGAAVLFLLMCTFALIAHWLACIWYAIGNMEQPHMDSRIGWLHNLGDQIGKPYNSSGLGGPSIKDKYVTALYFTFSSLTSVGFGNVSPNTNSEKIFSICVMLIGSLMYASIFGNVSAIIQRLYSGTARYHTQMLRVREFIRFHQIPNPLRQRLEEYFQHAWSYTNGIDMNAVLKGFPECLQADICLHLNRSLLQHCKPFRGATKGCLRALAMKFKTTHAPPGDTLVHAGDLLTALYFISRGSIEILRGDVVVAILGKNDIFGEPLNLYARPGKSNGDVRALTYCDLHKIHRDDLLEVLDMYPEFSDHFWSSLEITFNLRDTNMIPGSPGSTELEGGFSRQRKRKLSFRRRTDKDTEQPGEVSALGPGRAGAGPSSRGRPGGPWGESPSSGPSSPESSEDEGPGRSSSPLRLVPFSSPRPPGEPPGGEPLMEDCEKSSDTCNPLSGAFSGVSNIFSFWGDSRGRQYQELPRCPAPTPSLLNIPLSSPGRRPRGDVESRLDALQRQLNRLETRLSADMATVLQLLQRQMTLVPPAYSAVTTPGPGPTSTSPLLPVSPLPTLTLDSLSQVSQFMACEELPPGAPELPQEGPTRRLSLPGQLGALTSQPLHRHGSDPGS

How the values were obtained:
IRAK4 protein = IRAK4 protein (Homo sapiens, UniProt Q9NWZ3); assay: IRAK4 degradation activity in hPBMC cells (24 hours)
Protocol: hPBMC cells are human peripheral blood mononuclear cells. Peripheral venous blood was taken from healthy volunteers, and hPBMCs were isolated using Ficoll density gradient centrifugation (Ficoll-Paque™ PLUS 1.077, GE, Cat. 17-1140-02). Culture conditions: RPMI-1640+10% FBS+1% penicillin-streptomycin solution. The cells were cultured in an incubator at 37° C. and 5% CO2. The cells were plated in a 24-well plate at 1×10^6 cells/well. After plating, compounds at different concentrations were added, and the cells were cultured in an incubator at 37° C. and 5% CO2 for 24 hours. After the culture was completed, the cells were collected, and RIPA lysis buffer (beyotime, Cat. P0013B) was added. The cells were lysed on ice for 20 minutes, and then centrifuged at 12000 rpm at 4° C. for 10 minutes. The protein sample of the supernatant was collected, the protein was quantified using a BCA kit (Beyotime, Cat. P0009), and then the protein was diluted to 1 mg/mL. The expression of IRAK4 (CST, Cat. 4363S) and the internal reference cofilin (CST, Cat. 5175S) were detected using a fully automated western blot quantitative analyzer (Proteinsimple). The expression level of IRAK4 relative to the internal reference was calculated using compass software. […] An IRAK4 degradation-drug concentration curve was fit using Graphpad Prism 8 software, and the DC50 was calculated.

[1] = target: hERG potassium ion channel (Homo sapiens, UniProt Q12809); assay: Effect on hERG potassium ion channel (manual patch-clamp, CHO cells)
Excerpt: Experimental platform: electrophysiological manual patch-clamp system
Cell line: Chinese hamster ovary (CHO) cell line stably expressing hERG potassium ion channel
Experimental method: In CHO (Chinese Hamster Ovary) cells stably expressing hERG potassium channel, whole cell patch-clamp technique was used to record hERG potassium channel current at room temperature. The glass microelectrode was made of a glass electrode blank (BF150-86-10, Sutter) by a puller. The tip resistance after filling the liquid in the electrode was about 2-5 MQ. The glass microelectrode can be connected to the patch-clamp amplifier by inserting the glass microelectrode into an amplifier probe. The clamping voltage and data recording were controlled and recorded by the pClamp 10 software through a computer. The sampling frequency was 10 kHz, and the filtering frequency was 2 kHz. […]
Data processing: Data analysis processing was carried out by using pClamp 10, GraphPad Prism 5 and Excel software. The inhibition degree of hERG potassium current (peak value of hERG tail current induced at −50 mV) at different compound concentrations was calculated by the following formula: […]
Compound IC50 was calculated using GraphPad Prism 5 software by fitting according to the following equation: […]

[2] = Pharmacokinetic test in mice; details: plasma, i.g. 10 mg/kg
Protocol: Experimental animals: Male ICR mice, about 25 g, 6 mice/compound, purchased from Chengdu Ddossy Experimental Animals Co., Ltd.
Test design: On the day of the experiment, 6 ICR mice were randomly grouped according to their body weights. The animals were fasted with water available for 12 to 14 h one day before the administration, and were fed 4 h after the administration.
• Vehicle for intravenous administration: 5% DMA+5% Solutol+90% Saline; • Vehicle for intragastric administration: 5% DMSO+30% PEG400+65% (20% SBE-CD); (DMSO: dimethyl sulfoxide; DMA: dimethylacetamide; Solutol: polyethylene glycol-15-hydroxystearate; PEG400: polyethylene glycol 400; SBE-β-CD: sulfobutyl-β-cyclodextrin; Saline: physiological saline)
Before and after the administration, 0.15 mL of blood was taken from the orbit of the animals under isoflurane anesthesia and placed in an EDTAK2 centrifuge tube. The blood was centrifuged at 5000 rpm and 4° C. for 10 min to collect plasma. The blood collection time points for the intravenous administration group and intragastric administration group were 0 min, 5 min, 15 min, 30 min, 1 h, 2 h, 4 h, 7 h and 24 h. Before analysis and detection, all samples were stored at −60° C. The samples were analyzed quantitatively by LC-MS/MS.

Remaining IRAK4 protein IRAK4% (IRAK4 protein; 100 nM, relative to vehicle control) | DC50 (IRAK4 protein; read-out: DC50 for IRAK4 protein degradation) [µM] | AUC0-t [2] [ng·h/mL] | SMILES | IC50 [1] [µM] | IC50 ([1]; read-out: IC50 for inhibitory effect on hERG potassium channel current, CHO cells stably expressing hERG, whole cell patch-clamp) [µM]
A (A ≤ 10%) | – | – | Cn1nc(C2CCC(=O)NC2=O)c2cccc(C#CCOC3CCN(C[C@H]4CC[C@H](n5cc(NC(=O)c6cnn7ccc(N8C[C@H]9C[C@@H]8CO9)nc67)c(C(F)F)n5)CC4)CC3)c21 (some centres unmarked) | 1 to 30 | –
– | < 0.02 | 3938 ± 1106 | Cn1nc(C2CCC(=O)NC2=O)c2cccc(C#CCO[C@@H]3CCN(C[C@H]4CC[C@H](n5cc(NC(=O)c6cnn7ccc(N8CCO[C@H](CO)C8)nc67)c(C(F)F)n5)CC4)C[C@@H]3F)c21 (single isomer, unassigned) | – | > 40
